In PubChem BioAssay AID493001 (Johns Hopkins Ion Channel Center, 2010):
This is a selection; strong and weak results do not stand in their true shares. The source made the active and inactive calls.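 How the source made its calls: active means duplicate-averaged calcium rise in uninduced cells above buffer wells' mean plus 5 SD; inactive means the rest.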

Assay: direct calcium signal without carbachol stimulation – cell-based, HEK293 M3R, non-induced, no carbachol, second counter-screen, artefact control for RGS4 inhibitor project, confirmation (AID 493001)
Details: Fluo-4 calcium, at 10 µM

Row | Compound | outcome
1 | CCc1nc2c(n1)c1c(non1O)c1c2no[n+]1[O-] | inactive
